The chains behind the UniProt entries cited, without tags or fusion partners. Residues count along the entry.
UniProt O15054, 1141-1590 limits assumed: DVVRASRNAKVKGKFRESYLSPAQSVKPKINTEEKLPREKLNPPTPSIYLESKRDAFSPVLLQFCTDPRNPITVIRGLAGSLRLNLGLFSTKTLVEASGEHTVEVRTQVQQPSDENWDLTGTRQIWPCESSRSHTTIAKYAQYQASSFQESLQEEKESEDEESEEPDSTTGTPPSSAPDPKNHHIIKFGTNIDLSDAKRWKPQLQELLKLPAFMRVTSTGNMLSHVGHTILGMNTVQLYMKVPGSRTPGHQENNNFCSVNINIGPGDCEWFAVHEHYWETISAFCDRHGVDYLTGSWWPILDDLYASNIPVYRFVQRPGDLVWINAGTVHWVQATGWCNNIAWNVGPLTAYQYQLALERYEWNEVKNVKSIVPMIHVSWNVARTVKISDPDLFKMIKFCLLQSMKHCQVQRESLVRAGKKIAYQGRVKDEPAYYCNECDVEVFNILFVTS

In paper PMC4931022, “Arginine demethylation is catalysed by a subset of JmjC histone lysine demethylases” (Nature Communications, 2016):

What was measured:
Type in all cases: biochemical
KDM6B = molecular target: T1, KDM6B (Homo sapiens, UniProt O15054); test: MALDI MS activity assay, recombinant KDM6B catalytic domain; parameters: key: + indicates demethylation activity; − indicates no activity or that below our limits of detection; details: KDM6B 2 μM, peptide 10 μM, 1 h, 37 °C, 2OG 100 μM, ascorbate 100 μM, Fe(II) 10 μM, 50 mM HEPES pH 7.5, 150 mM NaCl; MALDI-TOF MS, −14 Da shift
T1 construct: His6 (N); made in house; host or cells: Escherichia coli
Protocol: (§1) MALDI MS activity assays. Recombinant proteins (2 μM) were incubated with peptides (10 μM, sequences are given in Supplementary Table 1) and cofactors/substrates for 1 h at 37 °C, unless otherwise specified. Reactions were quenched with 1:1 (v/v) methanol and analysed with MALDI MS. Assay conditions for each enzyme are given in Supplementary Table 2. Negative controls without enzyme were included. Note that in some cases small variations (≤2 Da) in the absolute experimentally observed values compared with the calculated values for peptides were observed. However, in all cases where demethylation is assigned the mass shift was 14 Da.
(§2) Supplementary Table 2 Assay conditions with truncated recombinant protein.
(§3) Enzyme [2OG] / µM [Ascorbate] / µM [FeII] / µM Buffer Conditions
(§4) Supplementary Table 3 Assay conditions with full length Flag-tagged KDMs.
(§5) Enzyme [2OG] / mM [Ascorbate] / mM [FeII] / µM Buffer Conditions

KDM5C = molecular target: T2, KDM5C (Homo sapiens, UniProt P41229); test: MALDI MS activity assay, recombinant KDM5C catalytic domain; parameters: key: + indicates demethylation activity; − indicates no activity or that below our limits of detection; details: KDM5C 2 μM, peptide 10 μM, 1 h, 37 °C, 2OG 100 μM, ascorbate 100 μM, Fe(II) 10 μM, 50 mM HEPES pH 7.5; MALDI-TOF MS, −14 Da shift
T2 construct: KDM5C1–765 was produced as an N-terminally His6-tagged protein in Sf9 cells; His6 (N); made in house; host or cells: Sf9 cells (provided by the Structural Genomics Consortium)
T2 sequence (P41229 1-765): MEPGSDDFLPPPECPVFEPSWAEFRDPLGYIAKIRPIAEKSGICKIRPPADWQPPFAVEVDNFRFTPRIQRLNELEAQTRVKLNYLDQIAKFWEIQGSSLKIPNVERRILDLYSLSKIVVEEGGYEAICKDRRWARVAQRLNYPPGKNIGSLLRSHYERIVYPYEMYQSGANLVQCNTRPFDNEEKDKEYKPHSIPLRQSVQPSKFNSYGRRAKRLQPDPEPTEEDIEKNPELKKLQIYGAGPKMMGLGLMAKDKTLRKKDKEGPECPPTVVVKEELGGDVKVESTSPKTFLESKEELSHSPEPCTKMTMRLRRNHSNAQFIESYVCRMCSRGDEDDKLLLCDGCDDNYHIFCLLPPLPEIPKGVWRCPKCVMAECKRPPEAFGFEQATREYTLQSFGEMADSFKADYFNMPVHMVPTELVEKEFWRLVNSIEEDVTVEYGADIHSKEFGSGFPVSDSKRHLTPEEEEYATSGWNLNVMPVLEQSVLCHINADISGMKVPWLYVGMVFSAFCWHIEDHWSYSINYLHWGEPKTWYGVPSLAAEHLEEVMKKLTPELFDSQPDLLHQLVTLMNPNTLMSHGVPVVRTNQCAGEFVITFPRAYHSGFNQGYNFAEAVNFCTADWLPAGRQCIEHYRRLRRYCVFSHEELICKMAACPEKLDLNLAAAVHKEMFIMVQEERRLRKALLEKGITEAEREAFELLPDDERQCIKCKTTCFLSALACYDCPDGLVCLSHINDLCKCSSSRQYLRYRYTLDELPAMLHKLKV
Protocol: as §1, §2
(§6) Enzyme [2OG] / µM [Ascorbate] / µM [FeII] / µM Buffer Conditions […]
as §5

KDM3A [1] = molecular target: T3, KDM3A (Homo sapiens, UniProt Q9Y4C1); test: MALDI MS activity assay, recombinant KDM3A catalytic domain; parameters: key: + indicates demethylation activity; − indicates no activity or that below our limits of detection; details: KDM3A 2 μM, peptide 10 μM, 1 h, 37 °C, 2OG 100 μM, ascorbate 100 μM, Fe(II) 50 μM, 50 mM HEPES pH 7.5; MALDI-TOF MS, −14 Da shift
T3 construct: KDM3A515–1,317; His6 (N); made in house; host or cells: Sf9 cells
T3 sequence (Q9Y4C1 515-1317 limits assumed): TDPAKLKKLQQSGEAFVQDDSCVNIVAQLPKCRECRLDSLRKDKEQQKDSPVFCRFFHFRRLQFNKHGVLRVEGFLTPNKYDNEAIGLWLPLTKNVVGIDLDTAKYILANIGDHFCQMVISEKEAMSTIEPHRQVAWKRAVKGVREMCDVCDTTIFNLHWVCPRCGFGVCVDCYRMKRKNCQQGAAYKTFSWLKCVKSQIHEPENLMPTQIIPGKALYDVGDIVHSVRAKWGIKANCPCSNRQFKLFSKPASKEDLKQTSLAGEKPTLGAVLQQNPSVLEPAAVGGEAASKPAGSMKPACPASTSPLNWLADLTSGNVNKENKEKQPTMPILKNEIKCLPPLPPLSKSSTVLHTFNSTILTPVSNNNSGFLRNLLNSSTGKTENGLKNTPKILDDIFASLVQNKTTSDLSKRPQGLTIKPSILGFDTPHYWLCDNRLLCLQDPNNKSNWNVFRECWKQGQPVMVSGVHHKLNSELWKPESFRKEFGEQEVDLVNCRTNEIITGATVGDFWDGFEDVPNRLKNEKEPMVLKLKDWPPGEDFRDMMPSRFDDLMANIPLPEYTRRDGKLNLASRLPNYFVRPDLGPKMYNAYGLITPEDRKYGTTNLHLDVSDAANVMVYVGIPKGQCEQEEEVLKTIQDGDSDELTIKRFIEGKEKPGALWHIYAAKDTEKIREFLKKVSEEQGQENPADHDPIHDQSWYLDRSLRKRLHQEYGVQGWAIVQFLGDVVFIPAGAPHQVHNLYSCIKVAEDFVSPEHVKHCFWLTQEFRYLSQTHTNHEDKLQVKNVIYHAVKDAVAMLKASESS
Protocol: as §1, §2, §3, §4, §5

KDM4E [2] = molecular target: T4, KDM4E (Homo sapiens, UniProt B2RXH2); test: MALDI MS activity assay, recombinant KDM4E catalytic domain; parameters: key: + indicates demethylation activity; − indicates no activity or that below our limits of detection; details: KDM4E 2 μM, peptide 10 μM, 1 h, 37 °C, 2OG 200 μM, ascorbate 100 μM, Fe(II) 10 μM, 50 mM HEPES pH 7.5; MALDI-TOF MS, −14 Da shift
T4 construct: His6 (N); made in house; host or cells: Escherichia coli
T4 sequence (B2RXH2 1-337): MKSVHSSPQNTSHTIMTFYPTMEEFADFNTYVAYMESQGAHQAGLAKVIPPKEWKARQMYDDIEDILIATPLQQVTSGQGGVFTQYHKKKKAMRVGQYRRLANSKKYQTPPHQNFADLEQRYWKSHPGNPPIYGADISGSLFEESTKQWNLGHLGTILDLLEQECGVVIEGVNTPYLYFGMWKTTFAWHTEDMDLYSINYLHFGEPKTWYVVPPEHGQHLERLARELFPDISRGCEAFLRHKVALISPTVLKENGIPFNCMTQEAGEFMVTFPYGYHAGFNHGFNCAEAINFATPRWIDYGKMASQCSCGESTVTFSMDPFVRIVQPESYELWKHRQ
Protocol: as §1, §2, §6, §5

KDM4E [3] = molecular target: T4, KDM4E; test: Formaldehyde dehydrogenase-coupled demethylation assay, KDM4E
Protocol: (§7) Formaldehyde dehydrogenase-coupled assays. Preliminary kinetic parameters were determined by detection of the formaldehyde by-product of the demethylation reaction using a FDH (formaldehyde dehydrogenase-coupled)/NAD^+-coupled assay as previously described. Assays were carried out in buffer (enzyme-dependent) with the addition of Fe(II) ammonium sulfate (10 μM), sodium ascorbate (100 μM), 2OG (200 μM), NAD^+ (500 μM), enzyme (0.2–4 μM) and FDH enzyme (0.025 U per assay, Sigma-Aldrich; total volume 30 μl) and were conducted at 37 °C in clear-bottom black 384-well plates. Reactions were monitored over 25 min using a PHERAstar FS (BMG Labtech) plate reader with 355 nm excitation and 460 nm emission. The Km and Vmax values were calculated from the reaction rate during the linear phase of formaldehyde production, as determined by the slope of the fluorescence signal recorded.

KDM3A [4] = molecular target: T3, KDM3A; test: Formaldehyde dehydrogenase-coupled demethylation assay, KDM3A
Protocol: as §7

[5] = calculated using data points below 100 μM, substrate inhibition observed above 100 μM, FDH-coupled assay, 37 °C, mean±s.e.m., n=3

Row | observed arginine demethylation activity (KDM6B) | observed arginine demethylation activity (KDM5C) | observed arginine demethylation activity (KDM3A [1]) | observed arginine demethylation activity (KDM4E [2]) | Substance | kcat (KDM4E [3]; KDM4E catalytic domain, apparent, preliminary, FDH/NAD+-coupled assay, 37 °C, mean±s.e.m., n=3) | Km (KDM4E [3]; KDM4E catalytic domain, apparent, preliminary, FDH/NAD+-coupled formaldehyde assay, 37 °C, 2OG 200 μM, Fe(II) 10 μM, ascorbate 100 μM, mean±s.e.m., n=3) [µM] | kcat/KM (KDM4E [3]; KDM4E, calculated from the average kcat and KM values, μM^−1 s^−1 for this quantity) | kcat/KM (KDM3A [4]; calculated from the average kcat and KM values, μM^−1 s^−1 for this quantity) | Km (KDM3A [4]; [5]) [µM] | kcat (KDM3A [4]; [5])
1 | − | + | − | + | ARTKQTA-Rme2s-KSTGGKA [H3 (1–15) R8me2s, 'natural' histone H3 peptide symmetrically dimethylated at R8] |  |  |  |  |  | 
2 | − | + | − | + | ARTKQTA-Rme2a-KSTGGKA [H3 (1–15) R8me2a, 'natural' histone H3 peptide asymmetrically dimethylated at R8] |  |  |  |  |  | 
3 |  |  |  |  | ARTKQTAR-Kme3-STGGKA [H3(1-15)K9me3, recognized histone H3 N-methylated-lysine peptide substrate for KDM4A/E, reference compound] | 170.7±15.2 × 10^−3 s^−1 | 17.8 ± 4 | 9,575 × 10^−6 |  |  | 
4 |  |  |  |  | ARTKQTAR-Kme2-STGGKA [H3(1-15)K9me2, recognized histone H3 N-methylated-lysine peptide substrate for KDM3A, reference compound] |  |  |  | 7,978.0 × 10^−6 | 44.5 ± 4.8 | 355±95.3 × 10^−3 s^−1
5 | − | − | − | + | ARTKQTA-Rme-KSTGGKA [H3 (1–15) R8me, 'natural' histone H3 peptide monomethylated at R8] |  |  |  |  |  | 
